The target in this experiment is Acetylcholinesterase (Homo sapiens, UniProt P22303). The experiment can be described thus: The cholinesterase assays were performed using colorimetric method reported by Ellman. […] The reaction rates were compared and the percent inhibition due to the presence of test compounds was calculated. Inhibition curve was obtained for each compound. As to conditions: pH 8; 37 °C.

Sequences of proteins named here, by UniProt entry; tags and fusion partners are left off. A change or cut given only in a name is not applied to a line headed by its entry.
UniProt P22303: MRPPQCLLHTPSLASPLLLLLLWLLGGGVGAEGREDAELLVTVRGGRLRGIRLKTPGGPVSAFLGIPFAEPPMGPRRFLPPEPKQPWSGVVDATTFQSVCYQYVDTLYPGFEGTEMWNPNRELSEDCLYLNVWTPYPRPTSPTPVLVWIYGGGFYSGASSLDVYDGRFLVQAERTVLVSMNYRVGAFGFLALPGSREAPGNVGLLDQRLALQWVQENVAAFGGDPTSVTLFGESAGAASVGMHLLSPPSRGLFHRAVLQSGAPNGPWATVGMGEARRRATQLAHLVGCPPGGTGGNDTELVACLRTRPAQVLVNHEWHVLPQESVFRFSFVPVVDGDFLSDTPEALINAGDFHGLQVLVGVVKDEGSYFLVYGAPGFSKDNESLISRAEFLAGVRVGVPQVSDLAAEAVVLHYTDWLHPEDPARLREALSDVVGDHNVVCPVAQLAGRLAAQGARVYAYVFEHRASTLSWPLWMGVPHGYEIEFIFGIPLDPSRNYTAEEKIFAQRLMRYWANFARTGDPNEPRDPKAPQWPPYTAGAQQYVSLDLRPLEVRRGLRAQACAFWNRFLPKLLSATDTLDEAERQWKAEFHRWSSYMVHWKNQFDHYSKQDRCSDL

The values below come from BindingDB's records for doi:10.1021/jm049515h (University of Bologna, 2005).

By IC50 is commonly meant the concentration that inhibits the measured activity by half.

In the case of `CNC(=O)Oc1cccc(CN(C)CCCCCCCOc2ccc3c(O)coc3c2)c1` [3-[(methyl{7-[(3-oxo-2,3-dihydro-1-benzofuran-6-yl)oxy]heptyl}amino)methyl]phenyl methylcarbamate], the IC50 was 1610 nM.
